# Measured values from ChEMBL document CHEMBL1121863, “New analgesic drugs derived from phencyclidine” (1981).
# Sequences of proteins named here, by UniProt entry; tags and fusion partners are left off.
# UniProt P00934, whole entry, entry inferred from the test as described: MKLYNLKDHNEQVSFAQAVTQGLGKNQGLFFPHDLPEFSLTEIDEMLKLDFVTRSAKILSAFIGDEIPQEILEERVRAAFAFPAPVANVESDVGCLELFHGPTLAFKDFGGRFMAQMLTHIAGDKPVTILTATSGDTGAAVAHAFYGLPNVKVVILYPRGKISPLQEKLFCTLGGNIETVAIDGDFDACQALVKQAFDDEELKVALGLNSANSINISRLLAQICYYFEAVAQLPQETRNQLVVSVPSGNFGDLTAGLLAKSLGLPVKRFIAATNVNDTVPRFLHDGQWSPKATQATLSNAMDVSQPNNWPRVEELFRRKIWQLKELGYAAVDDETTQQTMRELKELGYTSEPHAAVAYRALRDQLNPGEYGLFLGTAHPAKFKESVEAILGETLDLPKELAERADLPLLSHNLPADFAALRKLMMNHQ
# Key:
# Rattus norvegicus [1] = assay: Diuretic effect was determined after peroral administration at a dose of 10 mg/kg in rats; conditions: route oral
# Rattus norvegicus [2] = assay: Diuretic effect was determined after peroral administration at a dose of 30 mg/kg in rats; conditions: route oral
# Rattus norvegicus [3] = assay: Antagonistic effect against AVP-induced hypertension in rats after intravenous administration
# Mus musculus [4] = assay: Compound was evaluated for the analgesic activity by administering through subcutaneous route in writhing test
# Mus musculus [5] = organism: Mus musculus; assay: Inhibitory effect of naloxone antagonism
# Mus musculus [6] = assay: Compound was evaluated for the analgesic activity by administering through subcutaneous route in hotplate test
# Mus musculus [7] = organism: Mus musculus; assay: Compound was evaluated for the potency to produce hyperactivity in mice
# Mus musculus [8] = organism: Mus musculus; assay: Compound was evaluated for the inhibition of twitches in mouse vas deferens
# Mus musculus [9] = assay: Lethal dose when administered through subcutaneous route; conditions: in vivo, sc
# A549 = assay: In vitro cytotoxicity against human A-549 cancer cell line was evaluated
# B16 = assay: In vitro cytotoxicity against murine B16 cancer cell line was evaluated
# HT-29 = assay: In vitro cytotoxicity against human HT-29 cancer cell line was evaluated
# P388 = assay: In vitro cytotoxicity against murine p388 cancer cell line was evaluated
# Monkey = assay: Compound was tested for the change in serum cholesterol (SC) levels in cholesterol fed monkey
# Canis familiaris = organism: Canis familiaris; assay: Compound was tested for the change in serum cholesterol (SC) levels in cholesterol fed dog
# Unchecked = Unchecked (Escherichia coli K-12, UniProt P00934); assay: Inhibition of threonine synthase in Escherichia coli
compound,measurement,setting,value
COc1cc(C(=O)N2CCCCc3sccc32)ccc1NC(=O)c1ccccc1-c1ccccc1,Urine volume,Rattus norvegicus [1],2.5 ml 4hr-1
same,Urine volume,Rattus norvegicus [2],4.5 ml 4hr-1
same,ID50,Rattus norvegicus [3],0.11 mg/kg
CCOC(=O)C1(c2ccccc2)CCN(C2(c3ccccc3)CCCCC2)CC1,ED50,Mus musculus [4],5.8 mg/kg
same,pA2,Mus musculus [5],8.74
same,ED50,Mus musculus [6],12.1 mg/kg
same,Relative potency,Mus musculus [7],1.1
same,IC50,Mus musculus [8],0.78 µM
same,LD50,Mus musculus [9],> 300 mg/kg
CN(C)C1CCCN(C(=O)c2ccc(NC(=O)c3ccccc3-c3ccccc3)cc2)c2ccsc21 (centres undefined),Urine volume,Rattus norvegicus [1],7.6 ml 4hr-1
same,Urine volume,Rattus norvegicus [2],9.9 ml 4hr-1
same,ID50,Rattus norvegicus [3],> 0.3 mg/kg
COC(=O)C1CCN(C2(c3ccccc3)CCCCC2)CC1,ED50,Mus musculus [4],14.5 mg/kg
same,ED50,Mus musculus [6],40 mg/kg
same,Relative potency,Mus musculus [7],2
O=C(Nc1ccc(C(=O)N2CCCCc3[nH]ccc32)cc1)c1ccccc1-c1ccccc1,ID50,Rattus norvegicus [3],0.07 mg/kg
Cn1ccc2c1CCCCN2C(=O)c1ccc(NC(=O)c2ccccc2-c2ccccc2)cc1,Urine volume,Rattus norvegicus [2],0.8 ml 4hr-1
same,ID50,Rattus norvegicus [3],0.15 mg/kg
CCCCCCC(C)CCCCCCCCCCC[C@@H]1N[C@@H](CO)[C@@H]1O (some centres undefined),IC50,A549,0.099 mg/L
same,IC50,B16,0.079 mg/L
same,IC50,HT-29,0.13 mg/L
same,IC50,P388,0.22 mg/L
Oc1ccc2c3c1O[C@H]1[C@@H](O)C=C[C@H]4[C@@H](C2)NCC[C@@]341,pA2,Mus musculus [5],8.6
CN(CCc1cccnc1)C1CCCN(C(=O)c2ccc(NC(=O)c3ccccc3-c3ccccc3)cc2)c2ccsc21 (centres undefined),Urine volume,Rattus norvegicus [1],3.8 ml 4hr-1
OC1CCN(C2(c3ccccc3)CCCCC2)CC1,ED50,Mus musculus [4],11.2 mg/kg
same,Relative potency,Mus musculus [7],2.3
O=C(Oc1ccccc1)C1CCN(C2(c3ccccc3)CCCCC2)CC1,ED50,Mus musculus [4],24.5 mg/kg
same,ED20,Mus musculus [6],15 mg/kg
same,Relative potency,Mus musculus [7],1.1
same,LD50,Mus musculus [9],> 300 mg/kg
Cc1ccccc1C(=O)Nc1ccc(C(=O)N2CCCC(N(C)C)c3sccc32)cc1 (centres undefined),Urine volume,Rattus norvegicus [1],2.9 ml 4hr-1
O=C(Nc1ccc(C(=O)N2CCCCc3sccc32)cc1)c1ccccc1Cl,ID50,Rattus norvegicus [3],> 0.3 mg/kg
O=C(Nc1ccc(C(=O)N2CCCCc3sccc32)cc1)c1ccccc1-c1ccccc1,Urine volume,Rattus norvegicus [2],0.4 ml 4hr-1
same,ID50,Rattus norvegicus [3],0.11 mg/kg
Cc1ccccc1C(=O)Nc1ccc(C(=O)N2CCCCc3sccc32)cc1,ID50,Rattus norvegicus [3],> 0.3 mg/kg
O=C(Oc1cccnc1)C1CCN(C2(c3ccccc3)CCCCC2)CC1,ED50,Mus musculus [4],16.5 mg/kg
same,ED20,Mus musculus [6],45 mg/kg
same,Relative potency,Mus musculus [7],1.3
same,LD50,Mus musculus [9],> 300 mg/kg
Cc1ccccc1C(=O)Nc1ccc(C(=O)N2CCCC(N(C)C)c3ccccc32)cc1 (centres undefined),Urine volume,Rattus norvegicus [1],2.9 ml 4hr-1
same,Urine volume,Rattus norvegicus [2],9.3 ml 4hr-1
same,ID50,Rattus norvegicus [3],> 0.3 mg/kg
COc1ccc(OC(=O)C2CCN(C3(c4ccccc4)CCCCC3)CC2)cc1OC,ED50,Mus musculus [4],5.2 mg/kg
same,ED50,Mus musculus [6],7.5 mg/kg
same,Relative potency,Mus musculus [7],0.5
same,LD50,Mus musculus [9],74 mg/kg
c1ccc(C2(N3CCCCC3)CCCCC2)cc1,ED50,Mus musculus [4],2.8 mg/kg
same,Relative potency,Mus musculus [7],5
same,LD50,Mus musculus [9],37.5 mg/kg
c1ccc(C2CCN(C3(c4ccccc4)CCCCC3)CC2)cc1,ED50,Mus musculus [4],42 mg/kg
same,pA2,Mus musculus [5],8.71
same,ED50,Mus musculus [6],56 mg/kg
same,Relative potency,Mus musculus [7],1
same,IC50,Mus musculus [8],7.5 µM
same,LD50,Mus musculus [9],> 300 mg/kg
Nc1ccc(OC(=O)C2CCN(C3(c4ccccc4)CCCCC3)CC2)cc1,ED50,Mus musculus [4],9.3 mg/kg
same,ED20,Mus musculus [6],40 mg/kg
same,Relative potency,Mus musculus [7],0.7
COc1ccc([C@@H]2[C@@H](CCCc3ccccc3)C(=O)N2c2ccc(OC)cc2)cc1,ED50,Monkey,0.2 mg/kg
same,ED50,Canis familiaris,0.1 mg/kg
COc1cc(NC(=O)c2ccccc2-c2ccccc2)ccc1C(=O)N1CCCCc2sccc21,Urine volume,Rattus norvegicus [2],3.5 ml 4hr-1
same,ID50,Rattus norvegicus [3],> 0.3 mg/kg
OC1(c2ccccc2)CCN(C2(c3ccccc3)CCCCC2)CC1,ED50,Mus musculus [4],0.27 mg/kg
same,pA2,Mus musculus [5],8.76
same,ED50,Mus musculus [6],1.3 mg/kg
same,Relative potency,Mus musculus [7],1.2
same,IC50,Mus musculus [8],0.082 µM
same,LD50,Mus musculus [9],82.3 mg/kg
N[C@@H](CSCP(=O)(O)O)C(=O)O,Ki,Unchecked,11 µM
